Tested on: horseradish peroxidase

Substance: horseradish peroxidase
- decrease in the absorbance at 406 nm (1.0 mg/mL in SGF, one hour): 20%
- reduction of the rate of catalyzed iodine formation (in SGF, end of the hour): approximately 33%
